# Source: patent publication US20070027109A1 (priority 2002, published 2007)
# Experiments:
# monocyte/macrophages = assay: MTS staining for cell viability, monocyte/macrophages; format: cell-based, human
# Source text: Peripheral blood monocytes were isolated from normal HIV-1 negative donors by plastic adherence following ficoll hypaque purification of the buffy coat, as described above for PBMCs. In many cases the same donor used to produce the PBMC populations was also used to produce monocyte/macrophages, however unlike PBMC population monocyte/macrophage, donors were never pooled. […] The monocytes were released from the plastic by vigorous pipetting with Ca^2+ and Mg^2+ free PBS. […] The monocytes (1×10^5 per 0.2 cm well) were then cultured for six days, allowing maturation of the cells to a macrophagelike phenotype. […] Cultures were washed a final time by media removal 24 hours post infection, fresh compound added and the cultures continued for an additional six days. The assays were preformed using a standardized microtiter plate format, which uses only the inner 60 wells of a 96 well plate for assay purposes. The outer rows contain media and acts an a evaporation barrier. […] HIV p24 antigen content to assess virus replication was measured at assay termination by a commercially available p24 ELISA assay (Coulter) on cell-free supernatants, and compound cytotoxicity by MTS dye reduction. AZT, HIV-1 reverse nucleoside transcriptase inhibitor and dextransulfate, an attachment inhibitor, were used as positive control compounds and run in parallel with each determination. […]
# [1] = test system: human peripheral blood mononuclear cells (PBMCs); format: cell-based
# Protocol: The final volume per well was 200 μL. […] Wells were also examined microscopically and any abnormalities noted.
# At assay termination the assay plates were stained with the soluble tetrazolium-based dye MTS (CellTiter96® Reagent Promega) to determine cell viability and quantify compound toxicity. […] At termination of the assay 20 μL of MTS reagent was added per well and incubated for 4 h at 37° C. Adhesive plate sealers were used in place of the lids, the sealed plate was inverted several times to mix the soluble formazan product and the plate was read spectrophotometrically at 490 nm with a Molecular Devices Vmax plate reader.
Substance,TC50 (monocyte/macrophages),TC50 [1]
"sulfated dextran, 12.2% sulfur, molecular weight 36,000 [DES 12.5% Sulfation]",100 µg/mL,100 µg/mL
"sulfated dextran, 9.5% sulfur, molecular weight 30,000 [DES 9.5% Sulfation]",100 µg/mL,100 µg/mL
